Assay results: PMC12100652

Experiments:
[1] = target: pyroglutamate-modified α-synuclein 24-140 (human) (UniProt P37840); assay: AUC; sedimentation velocity, 42,000 rpm, 20 °C, interference detection, c(s) analysis; agitated samples diluted in 50 mM Tris/HCl pH 7.2, 200 mM NaCl; two concentrations
[2] = target: pyroglutamate-modified α-synuclein 24-140 (human) (UniProt P37840); assay: SEC + other: SAXS; after agitation at 12 mg/mL, 900 rpm, 37 °C, 5 h (pE62-aSyn 30 min), insoluble aggregates removed at 10,000g; Yarra SEC 3000 column, 50 mM Tris/HCl pH 7.2, 200 mM NaCl, 20 °C, 0.3 mL/min

stoichiometry N [1]: 2
stoichiometry N [2]: 2
Substance: pyroglutamate-modified α-synuclein 24-140 (from UniProt P37840 24-140) (domain or fragment)
